## Antibody variant affinities, Ab-14 heavy chain, assay B

From the AlphaSeq antibody data of Li et al. 2023 (doi:10.1038/s41467-023-39022-2), copy in the FLAb collection.

Target peptide (SARS-CoV-2 spike, HR2 region): PDVDLGDISGINAS

Parent: Ab-14, a human scFv built as VH, a 15-residue (Gly4Ser)3 linker, VL. Only the CDRs of the heavy chain vary.
VH: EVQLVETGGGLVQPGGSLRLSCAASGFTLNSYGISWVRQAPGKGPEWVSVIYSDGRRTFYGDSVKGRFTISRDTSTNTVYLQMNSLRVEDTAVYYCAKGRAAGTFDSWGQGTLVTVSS
VL: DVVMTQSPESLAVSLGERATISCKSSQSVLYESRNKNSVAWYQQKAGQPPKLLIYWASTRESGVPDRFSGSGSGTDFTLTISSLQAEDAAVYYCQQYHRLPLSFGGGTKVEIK

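The variants were designed computationally from a first round of random CDR variants and then made and measured. Their group label is 14H_Ctrl (Ctrl: baseline library sampled from a position-specific scoring matrix, with some repeated check sequences). AlphaSeq pools MATa yeast showing the antibodies with MATalpha yeast showing the peptide. Pairs that bind mate more often; barcode pairs of the diploids are counted by sequencing. Each replicate has its own calibration line, from reference interactions of the BCL2 family. Mating was done six times.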

Variants are written as CDR1, CDR2 and CDR3 of the heavy chain (limits as in the source). Parent: GFTLNSYGIS, VIYSDGRRTFYGDSVK, GRAAGTFDS. The read-out is the apparent dissociation constant on a log10 scale (nM): the lower, the stronger. Where no diploid with the target was found in that replicate, the entry reads "n.d.": below detection, most likely a poor binder, though not proof of it. The authors averaged sequences with at least three values out of six and counted those with two or fewer as poor binders. Nonspecific signal, from three strains lacking the peptide, appeared in 1% of pairings of all heavy chain designs, centred on 2.08 (5% of these signals below 0.84); values are not corrected for it. For each scFv, signals with the empty controls are counted beside the result, with their mean in brackets. The parent sequence was in this pool as ten entries: three were never detected, three once, and four in most replicates, with averages from 0.34 to 2.37. The range of this assay differs from that of the first round, and the authors advise against merging the two.

CDR-H1,CDR-H2,CDR-H3,"log10 Kd, replicates",signal with controls
GFTINSYGIS,VIYSDGRRTFYGDSVK,GRAAGSFDS,1.05 / 2.11 / 0.48 / 1.24 / 1.45 / 0.88,0/18
GFQLNSYGIS,VIYSDGRRTFYEDNVK,GDAAGTFDS,n.d. / n.d. / n.d. / n.d. / n.d. / n.d.,0/18
GFTLNSYGIS,VIYSDGRRTFYGDSVK,GNAAGTFNS,2.69 / 1.89 / 4.38 / 2.07 / 2.49 / 2.43,0/18
GFTVNSYGIS,VIYADGRRTFYGDSVK,GREAGTYDV,0.11 / 0.04 / 0.23 / 0.17 / 0.18 / 0.22,0/18
DFTLTEYGIS,VIYSDGRRTFYGDSVK,GRARGTFDS,n.d. / n.d. / n.d. / n.d. / n.d. / n.d.,0/18
RFTLNSYGIT,VIYSDGRRTFYHDSVK,GRAAGTFDQ,n.d. / n.d. / n.d. / n.d. / n.d. / n.d.,0/18
HFTLNSYGIS,AIYSDGRRTFYGDSVK,GRAAGTFVE,n.d. / n.d. / n.d. / n.d. / n.d. / n.d.,0/18
GTTLNSYGIS,VIYSDGRRTFYGDSVK,RRAAGTFDS,n.d. / n.d. / n.d. / n.d. / n.d. / n.d.,0/18
GFTLNSYGIS,VIYSDGRRVFYSDSVD,GRCPGTFDS,1.95 / 0.71 / 0.76 / 1.15 / 0.56 / 1.61,0/18
GFTLNSYGIS,VIYSDGRRTFYGDSVK,QRAAGTFDS,n.d. / n.d. / n.d. / n.d. / n.d. / n.d.,0/18
GFTLNSYGIS,VIYSDGRRTFYEDSVK,GREAGTFDS,0.64 / 0.11 / n.d. / 0.56 / 0.51 / 2.36,0/18
GFWLNEYGIS,VIYSDGRRTFYEDSVK,GRAAGTFDS,1.27 / 1.47 / 1.33 / 2.00 / 1.12 / 1.23,0/18
GFTLNQYGIS,VIYSDGRRTFYGDSVK,GRAAGTFDT,0.69 / 0.63 / 0.27 / 0.64 / 0.47 / 0.67,0/18
DFTLNSYGIS,VIYSDGRRTFYGDSVV,GRAAGTFDS,n.d. / n.d. / n.d. / n.d. / n.d. / n.d.,0/18
GFELNSYGIS,VIYSDGRRTFYGDSVK,GQAAVTFDS,n.d. / n.d. / n.d. / n.d. / n.d. / n.d.,0/18
GFPLNSYGIS,VIYADGRRTFYGDSVK,GAAKGTNDS,1.29 / 0.40 / 0.19 / 0.67 / 0.80 / 1.86,0/18
GFTLNSYGYS,VIYSDGRRTFYGDSVK,GRAAGRFDS,n.d. / n.d. / n.d. / n.d. / n.d. / n.d.,1/18 (1.44)
GFTLNSYGIS,VIYSDGRRTFYGDNVK,GQAALTKNS,n.d. / n.d. / n.d. / n.d. / n.d. / n.d.,0/18
GFTLNDYGIS,VIYSDGRRTQYGDSVK,GRAAGTPDM,2.11 / n.d. / 1.12 / n.d. / 2.64 / 3.68,0/18
GFTLNSYGIS,VIYSDGRRTFYSRSVK,GRAAGFFDS,n.d. / 2.24 / n.d. / n.d. / n.d. / n.d.,0/18
GFTLNQYGIS,VIYSDGRRTFYGDSVK,DRAAGTFDS,1.96 / 1.11 / 1.22 / 1.73 / 0.87 / 1.57,0/18
GFTLNSYGIS,VIYSDGKRTFYGDKVK,GRVEGTFDS,1.85 / 1.31 / n.d. / 1.13 / 1.97 / n.d.,0/18
GFTLNSYGIS,VIYSDGRRTFYGDSVK,GRPAGTFDS,2.95 / n.d. / n.d. / n.d. / n.d. / n.d.,0/18
GATLNSYGIS,VIYSDGRRTFYGDSVK,GRAAGTFFS,n.d. / n.d. / n.d. / n.d. / n.d. / n.d.,0/18
GFTLNSYGIS,VIYSDGRRTFYGDSVK,GNAAGTFIN,n.d. / n.d. / n.d. / n.d. / n.d. / n.d.,1/18 (1.49)
GETLNSYGIS,VIYSDGRRTFYGDSVK,DRAAGTFDS,n.d. / n.d. / n.d. / n.d. / n.d. / n.d.,1/18 (2.08)
GFCLNSYGIS,VIYSDGRRTHYGDSVK,GRAAGTKDS,n.d. / n.d. / n.d. / n.d. / n.d. / n.d.,0/18
GFTLQSYGIS,VIYSDGMRTFYGDSVK,WTAAGTFDS,n.d. / n.d. / n.d. / n.d. / n.d. / n.d.,0/18
GFTLNSYGIS,VIYSDGRRTFYGDKVK,GEAAGIFDS,n.d. / n.d. / n.d. / n.d. / 4.40 / n.d.,0/18
GFTLNSYGIS,VIYSDGRRTQYGDKVK,GRAAGTFPS,n.d. / n.d. / 3.91 / n.d. / 2.40 / n.d.,0/18
GFTLNSYGIS,VIYSDGRRTFYTDSTK,LRAAGTFDG,n.d. / n.d. / n.d. / n.d. / n.d. / n.d.,0/18
GFTLNSYGIS,VIYSDGRRTFYGDKVK,GALKGTFDS,n.d. / n.d. / n.d. / n.d. / n.d. / n.d.,0/18
GFTLNSYGIS,VIYSDGRRTFYEDSVK,GRQAGTFDS,n.d. / 1.52 / n.d. / 1.36 / 1.16 / 1.39,2/18 (2.22)

Excerpt, the final 3 entries:

{"CDR-H1": "GFTLNSYGIS", "CDR-H2": "VIYSDGRRTFYTDSTK", "CDR-H3": "LRAAGTFDG", "log10 Kd, replicates": "n.d. / n.d. / n.d. / n.d. / n.d. / n.d.", "signal with controls": "0/18"}
{"CDR-H1": "GFTLNSYGIS", "CDR-H2": "VIYSDGRRTFYGDKVK", "CDR-H3": "GALKGTFDS", "log10 Kd, replicates": "n.d. / n.d. / n.d. / n.d. / n.d. / n.d.", "signal with controls": "0/18"}
{"CDR-H1": "GFTLNSYGIS", "CDR-H2": "VIYSDGRRTFYEDSVK", "CDR-H3": "GRQAGTFDS", "log10 Kd, replicates": "n.d. / 1.52 / n.d. / 1.36 / 1.16 / 1.39", "signal with controls": "2/18 (2.22)"}